Data on one compound can be found in ChEMBL document CHEMBL1817572, “New, potent, selective, and short-acting peptidic V1a receptor agonists” (J Med Chem, 2011).

The chains behind the UniProt entries cited, without tags or fusion partners.
UniProt P37288, whole entry: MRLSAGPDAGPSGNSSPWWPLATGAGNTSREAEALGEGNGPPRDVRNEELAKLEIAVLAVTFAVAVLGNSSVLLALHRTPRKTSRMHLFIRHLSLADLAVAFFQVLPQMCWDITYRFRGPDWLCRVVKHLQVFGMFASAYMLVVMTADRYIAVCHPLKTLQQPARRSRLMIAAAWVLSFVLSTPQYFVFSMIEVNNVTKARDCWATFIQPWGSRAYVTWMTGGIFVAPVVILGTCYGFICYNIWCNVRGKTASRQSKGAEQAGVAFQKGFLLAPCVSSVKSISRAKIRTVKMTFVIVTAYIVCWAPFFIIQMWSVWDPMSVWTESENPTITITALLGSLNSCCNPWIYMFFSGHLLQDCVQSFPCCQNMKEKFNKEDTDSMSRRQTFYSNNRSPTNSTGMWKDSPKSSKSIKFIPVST

This experiment addresses Vasopressin V1a receptor (Homo sapiens, UniProt P37288). Nature of the experiment: Agonist activity at recombinant human vasopressin V1a receptor expressed in HEK293 cells by luciferase reporter gene assay. The format is functional, cell-based.

In the case of `CC[C@H](C)[C@@H]1NC(=O)[C@H](Cc2ccccc2)NC(=O)[C@@H](N)CSSC[C@@H](C(=O)N2CCC[C@H]2C(=O)N[C@@H](CCCN)C(=O)NCC(N)=O)NC(=O)[C@H](CC(N)=O)NC(=O)[C@H](CCC(N)=O)NC1=O`, the EC50 (as a rule, the midpoint of the concentration-response curve) turned out to be 0.27 nM.
